This is a selection; strong and weak results do not stand in their true shares. Active and inactive are the calls of the source. No stated cut-off is given here; in the data, active means inhibition above about 17%; inactive means the rest.

Amino acid sequences for entries named in this document (tags omitted).
UniProt P53779, whole entry: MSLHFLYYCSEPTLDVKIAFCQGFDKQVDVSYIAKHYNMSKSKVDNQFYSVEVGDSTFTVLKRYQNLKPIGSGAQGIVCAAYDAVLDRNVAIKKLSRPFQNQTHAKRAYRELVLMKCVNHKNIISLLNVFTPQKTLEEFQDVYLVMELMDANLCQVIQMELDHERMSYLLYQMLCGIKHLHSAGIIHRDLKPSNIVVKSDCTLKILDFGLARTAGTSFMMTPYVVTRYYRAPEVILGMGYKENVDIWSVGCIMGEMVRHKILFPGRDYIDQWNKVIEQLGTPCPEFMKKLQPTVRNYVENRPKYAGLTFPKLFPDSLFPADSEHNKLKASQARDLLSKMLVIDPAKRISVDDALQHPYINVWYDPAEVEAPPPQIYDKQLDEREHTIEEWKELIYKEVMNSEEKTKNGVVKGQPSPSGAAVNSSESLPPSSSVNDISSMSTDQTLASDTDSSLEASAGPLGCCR

Broadly, the inhibition is the drop in the measured response relative to a control, in per cent.

The experiment concerns the target Mitogen-activated protein kinase 10 (Homo sapiens) (UniProt P53779). The experiment is described as follows: JNK3 kinase activity inhibitors, primary screen, biochemical, human, purified enzyme (AID 746).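 Further: 0% = DMSO and 100% = reference inhibitor.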 As to conditions: HTS, at 8 µM, stronger effect = higher value.
Take `CCC(CO)(C(=O)OC1CN2CCC1CC2)c1ccccc1` (configuration not stated): the inhibition was inactive: 4.44%. Then `CCOc1ncccc1C(=O)NCC1(N2CCOCC2)CCCCC1`, with inactive: 5.32%; and `Fc1ccccc1NC1CCN(Cc2ccccc2)CC1`, with inactive: -0.26%. Then `N/C(=N\O)c1c(N)no[n+]1[O-]`, with inactive: -0.04%. Then `N#CC1(Nc2ccccc2)CCN(CCc2ccccc2)CC1`, with inactive: 0.54%. Turning to `COc1ccc(NC2CCN(CCc3ccccc3)CC2)c(OC)c1`, the inhibition is inactive: -7.26%. Then `O=C(OC1CN2CCC1CC2)C1c2ccccc2Oc2ccccc21` (configuration not stated), with inactive: 0.78%.

For the origin of these results see PubChem BioAssay AID746 (The Scripps Research Institute Molecular Screening Center, 2007).
